Experimental data published in paper PMC7160673, “A Degenerate Peptide Library Approach to Reveal Sequence Determinants of Methyllysine-Driven Protein Interactions” (Frontiers in Cell and Developmental Biology, 2020).

Columns and labels:
Format in all cases: binding
[1] = tested on: Abcam #ab8895, anti-H3K4me1; assay: Histone peptide microarray, Abcam ab8895; settings: Abcam ab8895 (anti-H3K4me1) hits, average signal per peptide;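 further: normalized to the highest peptide average per subarray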
Method: (§1) Peptide microarrays were fabricated using an Aushon 2470 microarrayer and used as described ([Cornett et al., 2017]) with the following modifications. Protein and antibody hybridization steps were performed in buffer containing 25 mM HEPES pH 7.5, 100 mM NaCl, 0.5% BSA (w/v), and 0.1% NP-40. Slides were washed 3 × 5 min in PBS supplemented with 0.1% Tween-20 between each hybridization step. Antibodies used were primary anti-GST (Sigma #7781, 1:2,000 dilution) and an AlexaFluor 647-labeled secondary antibody (Life Technologies A-21245, 1:5,000 dilution). […] Full lists of peptides queried by array analysis are in Supplementary Table S2.

[2] = tested on: ABClonal #A2355, anti-H3K4me1; assay: Histone peptide microarray, ABclonal A2355; settings: Abclonal A2355 (anti-H3K4me1) hits;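 further: normalized to the highest peptide average per subarray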
Method: as §1

[3] = tested on: Active Motif #39161, anti-H3K9me3; assay: Histone peptide microarray, Active Motif 39161; settings: Active Motif 39161 (anti-H3K9me3) hits;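 further: normalized to the highest peptide average per subarray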
Method: as §1

MPP8 chromo = target: T1, MPP8 chromo (Homo sapiens, UniProt Q99549); assay: Histone peptide microarray, MPP8 chromo; settings: normalized histone peptide array signal, hits; hybridization with 1 M MPP8 chromo (so in the source); two subarrays
T1 construct: 50-118; made in house; host or cells: E. coli BL21
T1 sequence (Q99549 50-118): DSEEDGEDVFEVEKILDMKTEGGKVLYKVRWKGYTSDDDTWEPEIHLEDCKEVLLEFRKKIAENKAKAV
Method: (§2) Peptide microarrays were fabricated using an Aushon 2470 microarrayer and used as described ([Cornett et al., 2017]) with the following modifications. Protein and antibody hybridization steps were performed in buffer containing 25 mM HEPES pH 7.5, 100 mM NaCl, 0.5% BSA (w/v), and 0.1% NP-40. Slides were washed 3 × 5 min in PBS supplemented with 0.1% Tween-20 between each hybridization step. Antibodies used were primary anti-GST (Sigma #7781, 1:2,000 dilution) and an AlexaFluor 647-labeled secondary antibody (Life Technologies A-21245, 1:5,000 dilution). Arrays were scanned using an Innopsys InnoScan 110AL microarray scanner and analyzed using ArrayNinja ([Dickson et al., 2016]). Full lists of peptides queried by array analysis are in Supplementary Table S2.

CDYL2 chromo = target: T2, CDYL2 chromo (Homo sapiens, UniProt Q8N8U2); assay: Histone peptide microarray, CDYL2 chromo; settings: normalized histone peptide array signal, hits; hybridization with 1 M CDYL2 chromo (so in the source); two subarrays
T2 construct: 1-75; made in house; host or cells: E. coli BL21
T2 sequence (Q8N8U2 1-75): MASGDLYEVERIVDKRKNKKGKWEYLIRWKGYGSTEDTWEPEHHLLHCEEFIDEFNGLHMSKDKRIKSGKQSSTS
Method: as §2

| Substance | Avg Signal [1] | Avg Signal [2] | Avg Signal [3] | Avg Signal (MPP8 chromo) | Avg Signal (CDYL2 chromo) |
| --- | --- | --- | --- | --- | --- |
| ARTKQTARKSTGGKAPR(Me2a)K(Ac)QLATKAA-Peg-Biot [H3.1R17me2aK18ac] | 0.2016 | 0.006138 | 0.007729 |  |  |
| ARTKQTARK(Me2)STGGKA-Peg-Biot [H3.1K9me2 H3.1(1-15)] |  |  |  | 0.2383 | 0.1146 |
